Laboratory results as given in ChEMBL document CHEMBL5385854, “Discovery of PPARγ and glucocorticoid receptor dual agonists to promote the adiponectin and leptin biosynthesis in human bone marrow mesenchymal stem cells” (Eur J Med Chem, 2023).

Chains of the proteins cited; added tags and fusions are not shown. Lines headed by an entry give the natural chain unless they say otherwise; changes in a name come on top.
UniProt Q00535, whole entry, looked up: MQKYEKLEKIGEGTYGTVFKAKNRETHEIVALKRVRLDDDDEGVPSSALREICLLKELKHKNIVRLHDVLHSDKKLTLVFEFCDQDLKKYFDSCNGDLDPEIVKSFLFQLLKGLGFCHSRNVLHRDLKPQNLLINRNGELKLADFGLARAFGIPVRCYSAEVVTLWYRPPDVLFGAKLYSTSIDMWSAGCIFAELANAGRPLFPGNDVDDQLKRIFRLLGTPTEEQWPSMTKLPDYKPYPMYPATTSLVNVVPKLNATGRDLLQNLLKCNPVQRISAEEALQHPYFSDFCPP
UniProt Q15078: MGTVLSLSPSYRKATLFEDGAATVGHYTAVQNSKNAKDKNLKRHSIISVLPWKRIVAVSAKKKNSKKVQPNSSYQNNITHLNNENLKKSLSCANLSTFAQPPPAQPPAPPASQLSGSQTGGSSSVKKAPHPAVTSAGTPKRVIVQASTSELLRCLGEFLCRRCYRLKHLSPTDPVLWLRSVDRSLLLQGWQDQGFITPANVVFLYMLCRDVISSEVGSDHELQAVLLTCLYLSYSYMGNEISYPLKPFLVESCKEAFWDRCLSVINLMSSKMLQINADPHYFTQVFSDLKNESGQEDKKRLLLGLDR

Experiments:
[1] = molecular target: T1, Cyclin-dependent kinase 5/CDK5 activator 1 (Homo sapiens) (UniProt Q00535+Q15078); experiment: Inhibition of human CDK5/p25 assessed as gamma-32P-ATP incorporation upto 30 uM by liquid scintillation counting analysis; format: protein-complex assay
[2] = molecular target: T1, Cyclin-dependent kinase 5/CDK5 activator 1 (Homo sapiens); experiment: Inhibition of human CDK5/p35 assessed as gamma-32P-ATP incorporation upto 30 uM by liquid scintillation counting analysis; format: protein-complex assay

Row | SMILES | inhibition [1] | inhibition [2]
1 | Cc1cc(O)c(C(=O)/C=C/c2ccnc(F)c2)c(=O)o1 | inactive | inactive
2 | Cc1cc(O)c(C(=O)/C=C/c2ccncc2)c(=O)o1 | inactive | inactive

Calls of active or inactive are those of the source. No cut-off for these calls is given here.
